Laboratory results: patent US6930118B2, “3-Oxadiazol-5-yl-1-aminoalkyl-1h-indole derivatives” (Amrad Operations Pty. Ltd., priority 2001, dated 2005)

The chains behind the UniProt entries cited, without tags or fusion partners.
UniProt P47746, whole entry: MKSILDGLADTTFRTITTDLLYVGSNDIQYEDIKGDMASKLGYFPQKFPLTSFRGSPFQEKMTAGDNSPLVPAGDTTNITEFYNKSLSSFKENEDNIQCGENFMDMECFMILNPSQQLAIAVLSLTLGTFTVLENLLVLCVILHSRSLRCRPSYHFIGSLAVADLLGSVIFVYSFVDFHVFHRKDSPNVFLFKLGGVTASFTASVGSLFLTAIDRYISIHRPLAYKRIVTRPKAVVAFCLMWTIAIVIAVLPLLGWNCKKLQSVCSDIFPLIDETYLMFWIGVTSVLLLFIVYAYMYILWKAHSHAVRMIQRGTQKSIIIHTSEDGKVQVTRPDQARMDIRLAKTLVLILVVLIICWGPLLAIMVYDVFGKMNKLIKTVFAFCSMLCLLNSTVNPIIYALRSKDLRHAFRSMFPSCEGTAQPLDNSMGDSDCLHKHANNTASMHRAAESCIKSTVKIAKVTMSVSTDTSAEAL

Biological target: T1, CB1 receptor (Mus musculus, UniProt P47746)
T1 construct: Mouse vasa deferentia were dissected with capsular connective tissue intact and set up in 20 ml organ baths; from tissue; host or cells: mouse (Swiss white) isolated vas deferens
Experiment: Mouse electrically-stimulated isolated vas deferens bioassay (MVD)
Format: cell-based
Conditions: decrease of electrically evoked twitch force
Description: Functional activity of the compounds was assayed using the mouse electrically-stimulated vas deferens bioassay, a measure of CB1 receptor function (24,25). Compounds showing appreciable activity in this assay and the ability to be antagonised by the CB1-selective antagonist, SR141716A, were deemed to be CB1 agonists. The remaining compounds were classed as cannabinoid ligands. CB2 functionality may be investigated using assays known to those skilled in the art; for example those described in U.S. Pat. No. 6,013,648.
Swiss white mice (35-40 g) were killed by exposure to 80% CO2 in O2 and exsanguination. Mouse vasa deferentia were dissected with capsular connective tissue intact and set up in 20 ml organ baths at 37° C. in Mg^2+-free physiological salt solution. […] Output from the transducer amplifier was recorded on a flat bed recorder (Gould BS 272, Cleveland, Ohio, U.S.A.). All drugs were dissolved in dimethyl sulfoxide (DMSO; Sigma, St Louis, Mo., U.S.A.) and allowed to equilibrate with the tissue for 30 min before the responses to field stimulation were assessed. Drug effects were measured as the percentage decrease of the pre-drug twitch force. In experiments where only a single drug concentration was tested, the resulting effect was expressed as a percentage of that observed in the presence of vehicle.

## CCCCCc1cc(O)c2c(c1)OC(C)(C)[C@@H]1CCC(C)=C[C@@H]21 [THC, reference compound]
  CB1 (MVD) % inh at 1.0 μM: 100%
